# Measurements from PubChem BioAssay AID588675 (Johns Hopkins Ion Channel Center, 2011).
# Chains of the proteins cited; added tags and fusions are not shown.
# UniProt Q96LB2, whole entry: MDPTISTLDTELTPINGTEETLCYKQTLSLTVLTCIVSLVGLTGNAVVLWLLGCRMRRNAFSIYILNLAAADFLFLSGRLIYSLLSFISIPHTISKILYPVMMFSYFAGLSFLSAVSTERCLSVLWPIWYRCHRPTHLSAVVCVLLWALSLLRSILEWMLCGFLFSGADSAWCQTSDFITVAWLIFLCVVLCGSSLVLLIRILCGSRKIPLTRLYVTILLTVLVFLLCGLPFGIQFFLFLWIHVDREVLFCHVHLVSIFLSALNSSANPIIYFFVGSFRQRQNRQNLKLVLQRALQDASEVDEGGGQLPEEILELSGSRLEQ
# Only a part is listed here, and it is no random draw. Some salts or complexes appear as unconnected parts, following the source record. Calls of active or inactive are those of the source.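 The calls were made as follows: active = plate-corrected calcium response at least 3 library SD above typical, normal starting fluorescence, not activating the receptor alone; inactive = the rest.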
# Biological target: Mas-related G-protein coupled receptor member X1 (Homo sapiens) (UniProt Q96LB2)
# Assay: positive allosteric modulators of MrgX1, primary screen, HEK293 cells, Fluo-4 calcium flux (AID 588675);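 also: compound read alongside a low EC10 to EC30 dose of BAM8-22 agonist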
# Conditions: MrgX1-HEK293, Fluo-4 calcium flux, FDSS, at 10 µM
row,Structure (SMILES),outcome
1,O=P(Nc1nccs1)(c1ccccc1)c1ccccc1,inactive
2,CC(C)C(=O)NC(Sc1ccccc1)C(Cl)(Cl)Cl (centres undefined),inactive
3,C(Cc1nn[nH]n1)Cc1nn[nH]n1,inactive
4,Nc1ccc([As](=O)(O)c2ccc([N+](=O)[O-])cc2)cc1,inactive
5,O=C(OC1CN2CCC1CC2)c1cccc(Cl)c1 (centres undefined),inactive
6,O=[N+]([O-])c1ncn(CCn2cnc([N+](=O)[O-])n2)n1,inactive
7,O=[N+]([O-])c1ccc(OP2(=O)COCCO2)cc1 (centres undefined),inactive
8,CC(=O)NC(SC(=S)N(C)C)C(Cl)(Cl)Cl (centres undefined),inactive
9,O=[N+]([O-])c1ccc(O)c(/C=N/Nc2ccc([N+](=O)[O-])cc2[N+](=O)[O-])c1,inactive
10,O=[As](O)(c1ccccc1)c1ccc(O)cc1,inactive
11,O=[N+]([O-])c1cc([N+](=O)[O-])c(NCC2CCS(=O)(=O)C2)c([N+](=O)[O-])c1 (centres undefined),inactive
12,O=P(Nc1nc2ccccc2s1)(c1ccccc1)c1ccccc1,inactive
13,CN(C)CCOC(=O)C(O)(c1ccccc1)C1CCCCC1 (centres undefined),inactive
14,C[C@H]1OP(=O)(Oc2ccccc2)[C@H](O)[C@H](O)[C@H]1N=[N+]=[N-] (some centres undefined),inactive
15,COc1ccc(NP(C)(=O)Oc2ccccc2OC)cc1 (centres undefined),inactive
16,COc1ccc(OP(C)(=O)Nc2cccc(Br)c2)cc1 (centres undefined),inactive
17,CN(C)C1(CNC(=O)c2ccc(Cl)c(S(N)(=O)=O)c2)CCCCC1,inactive
18,O=P(Nc1ccccn1)(c1ccc(Br)cc1)c1ccc(Br)cc1,inactive
19,CP(=O)(Nc1ccccc1)Oc1ccc(F)cc1 (centres undefined),inactive
20,Cc1ccccc1OP(=O)(Nc1ccccn1)Oc1ccccc1C,inactive
21,O=[N+]([O-])c1cc([N+](=O)[O-])c(OC2CCCCC2O)c([N+](=O)[O-])c1 (centres undefined),inactive
22,CCCCCOc1ccc(NP(C)(=O)Oc2ccc(Cl)cc2Cl)cc1 (centres undefined),inactive
23,CN(C)C(=O)Oc1noc2ccccc12,inactive
24,COC(=O)c1cc2c(s1)N=C(c1ccccc1)N(C)P2(=O)N1CCOCC1 (centres undefined),inactive
25,Cc1ccc(OP(=O)(Nc2ccccn2)Oc2ccc(C)cc2)cc1,inactive

row,Structure (SMILES),outcome
1,CC(=O)NC(SC(=S)N(CC(C)C)CC(C)C)C(Cl)(Cl)Cl (centres undefined),inactive
2,O=C(OC1CN2CCC1CC2)c1ccccc1 (centres undefined),inactive
3,CCC(=O)N1C2C3N(C(=O)CC)C1C1N(C(=O)CC)C(C(N1C(=O)CC)N3C(=O)CC)N2C(=O)CC,inactive
4,CCN(CC)CCCOC(=O)C(O)(c1ccccc1)C1CCCCC1 (centres undefined),inactive
5,CCOC(=O)c1ccc(NP(C)(=O)Oc2ccc(F)cc2)cc1 (centres undefined),inactive
6,COc1ccc(OP(C)(=O)Nc2ccc(SC(F)(F)F)cc2)cc1 (centres undefined),inactive
7,O=C(NC1CCS(=O)(=O)C1)NP(=S)(Oc1ccccc1)Oc1ccccc1 (centres undefined),inactive
8,CCNC(=S)/N=C(\N)N[N+](=O)[O-],inactive
9,c1ccc(-c2nn[nH]n2)c(-c2nn[nH]n2)c1,inactive
10,CCOC(=O)NC(Sc1ccccc1)C(Cl)(Cl)Cl (centres undefined),inactive
11,Cc1ccc(NP(=O)(Oc2cccc(C)c2)Oc2cccc(C)c2)nc1,inactive
12,CC(=O)Nc1ccc([As](=O)(O)O)c(O)c1,inactive
13,COc1ccc2c(c1O)-c1c(O)c(OC)cc3c1[C@H](C2)[N+](C)(C)CC3.O=[N+]([O-])c1cc([N+](=O)[O-])c([O-])c([N+](=O)[O-])c1[O-],inactive
14,CC(=O)Nc1ccc(Oc2c([N+](=O)[O-])cc([N+](=O)[O-])cc2[N+](=O)[O-])cc1,inactive
15,CC(=O)c1ccc(N2CC2c2ccncc2)cc1 (centres undefined),inactive
16,O=C(OC1CN2CCC1CC2)c1ccc([N+](=O)[O-])cc1 (centres undefined),inactive
17,O=C(OCCN1CCN(CCOCc2ccccc2)CC1)C(O)(c1ccccc1)c1ccccc1,inactive
18,C[C@H]1OP(=O)(Oc2ccccc2)C[C@@H]2O[C@@H]21 (some centres undefined),inactive
19,C[C@@H]1C=CCP(=O)(Oc2ccccc2)O1 (some centres undefined),inactive
20,CP(=O)(Nc1ccccc1F)Oc1ccccc1 (centres undefined),inactive
21,CC(C)(C)C(=O)NC(Sc1ccccc1)C(Cl)(Cl)Cl (centres undefined),inactive
22,CC(C)c1ccc(OP(C)(=O)Nc2ccc(SC(F)(F)F)cc2)cc1 (centres undefined),inactive
23,O=P1(Nc2nc3ccc(Cl)cc3s2)COc2ccccc2O1 (centres undefined),inactive
24,CCOc1ccc(C2=NCC(CBr)S2)cc1 (centres undefined),inactive
